Measured values: patent publication US20250228794A1, “HOMOVANILLYL ALCOHOL (HVA), HVA ISOMER, METHODS OF MAKING COMPOSITIONS COMPRISING SUCH COMPOUNDS, AND METHODS USING SUCH COMPOUNDS” (SOCIETE DES PRODUITS NESTLE S.A., priority 2017, published 2025)

Test: Urinary excretion of oleuropein metabolites after intake of olive leaf extract (pilot study, LC-MS)
Conditions: for detection and identification in urine: LC-MS, MS2/MS3
Procedure: Specifically, urine samples were enzymatically treated to hydrolyze the glucuronide and sulfate moieties and release the free forms which were quantified. After sample purification by liquid-liquid extraction, the chromatographic separation was operated on an Acquity™ UPLC® BEH C18 column (1.7 μm, 2.1×150 mm). The mobile phase consisted of 1 mmol/L ammonium acetate buffer and methanol under gradient conditions at a flow-rate of 0.25 mL/min. Hydroxytyrosol, homovanillyl alcohol, and the homovanillyl alcohol isomer 3-hydroxy-4-methoxyphenethanol (alternatively named 3-hydroxy-4-methoxyphenethyl alcohol) were identified and quantified by high performance liquid chromatography-electrospray ionization tandem mass spectrometry (HPLC-ESI-MS/MS) and by comparison with their corresponding chemically synthesized standards.
The circulating concentration and kinetics of absorption of phenolic compounds and their metabolites in biological fluids (plasma or urine) depends on the matrix in which the compounds are ingested, the dose ingested, the time point of sample collection, the microflora of each individual, and the metabolism of each individual. To develop the most appropriate analytical approach for the measurement of OE absorption, a pilot study was conducted. Specifically, five subjects collected urine at baseline (before intake of the olive leaf extract) and between the intakes of two capsules of the olive leaf extract.
The analytical method (sample preparation, deconjugation conditions, chromatographic detection and separation) was first developed by spiking chemical standards which were commercially available in commercial urine. The deconjugation conditions were determined by using the conjugates available, hydroxytyrosol sulfate and homovanillyl alcohol glucuronide. The commercially available chemical standards were 3,4-Dihydroxybenzoic acid; 3,4-Dihydroxyphenylacetic acid; Homovanillic acid; Homovanillyl alcohol; Homovanillyl alcohol glucuronide (vanillyl methanol glucuronide); Hydroxytyrosol; Hydroxytyrosol sulfate (hydroxytyrosol sulfate triethylammonium salt); and Vanillic acid.
Briefly, the sample preparation consisted of a liquid-liquid extraction with ethyl acetate after a protein precipitation using acidified methanol.
Regarding chromatographic analysis, Oleuropein metabolites were separated by reversed-phase ultra-performance liquid chromatography using a C18-column Acquity UPLC BEH C18 1.7 μm, 2.1 mm×150 mm, (Waters AG, Switzerland). […]
Relative amount of the metabolites identified was first evaluated to clarify if their excretion in urine was increasing after intake of the olive leaf extract. […]

Substance	Number of forms confirmed in urine	detection and identification in urine
Hydroxytyrosol glucuronide	2	Presence & identity confirmed
Hydroxytyrosol sulfoglucuronide	1	Presence & identity confirmed
